Experimental data taken from PMC4734766, “Pentamidine Is Not a Permeant but a Nanomolar Inhibitor of the Trypanosoma brucei Aquaglyceroporin-2” (PLoS Pathogens, 2016).

Test system: aqp2-null T. brucei expressing wild-type TbAQP2
Test: alamarBlue EC50 assay, aqp2-null strain re-expressing wild-type GFP-TbAQP2
Settings: Trypanosoma brucei

## N=C(N)c1ccc(OCCCCCOc2ccc(C(=N)N)cc2)cc1 [pentamidine]
  EC50: 0.65 nM
